Test results: PubChem BioAssay AID488912 (Sanford-Burnham Center for Chemical Genomics, 2010)
Only a part is listed here, and it is no random draw. The source made the active and inactive calls.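 The calls were made as follows: active = mean inhibition across replicates above about 50% (limit read from the data); inactive = the rest.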

Sequences of proteins named here, by UniProt entry; tags and fusion partners are left off.
UniProt Q96LD8, whole entry: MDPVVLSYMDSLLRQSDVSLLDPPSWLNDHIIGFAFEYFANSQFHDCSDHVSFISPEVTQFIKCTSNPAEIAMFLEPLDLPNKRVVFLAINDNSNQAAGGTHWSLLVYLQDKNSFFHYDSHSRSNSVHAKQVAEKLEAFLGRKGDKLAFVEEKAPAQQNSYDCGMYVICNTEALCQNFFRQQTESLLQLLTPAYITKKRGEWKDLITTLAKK

The compounds below were run against Sentrin-specific protease 8 (Homo sapiens) (UniProt Q96LD8) (assay: SENP8 protease inhibitors, retest, confirmation, biochemical, luminescence, single concentration (AID 488912)). Settings: Recombinant SENP8, Z-RLRGG-aminoluciferin luminescence, 60 min; at 12.5 µM; stronger effect = higher value.

Compound	inhibition
CC1=C2N=C(C=C3N=C(C(C)=C4[N-][C@@](C)([C@@H]5N=C1[C@](C)(CCC(=O)NC[C@@H](C)OP(=O)([O-])O[C@H]1[C@@H](O)[C@@H](n6cnc7cc(C)c(C)cc76)O[C@@H]1CO)[C@H]5CC(N)=O)[C@@](C)(CC(N)=O)[C@@H]4CCC(N)=O)[C@@](C)(CC(N)=O)[C@@H]3CCC(N)=O)C(C)(C)[C@@H]2CCC(N)=O.[C-]#N.[Co+3]	inactive: 32.5%
CP(=O)(Nc1ccccn1)Oc1ccc(Cl)cc1 (configuration not stated)	inactive: 9.3%
